Legend:
SRSF protein kinase 1 = SRSF protein kinase 1 (Homo sapiens, UniProt Q96SB4)
SRSF protein kinase 2 = SRSF protein kinase 2 (Homo sapiens, UniProt P78362)
[1] = target: Casein kinase I isoform epsilon (Homo sapiens, UniProt P49674)
[2] = target: Casein kinase I isoform delta (Homo sapiens, UniProt P48730)
[3] = target: Protein arginine N-methyltransferase 6 (Homo sapiens, UniProt Q96LA8)

Protein sequences, listed by entry. Tags and fused reporters are not part of them. Lines headed by an entry give the natural chain unless they say otherwise; changes in a name come on top.
UniProt Q96SB4, whole entry: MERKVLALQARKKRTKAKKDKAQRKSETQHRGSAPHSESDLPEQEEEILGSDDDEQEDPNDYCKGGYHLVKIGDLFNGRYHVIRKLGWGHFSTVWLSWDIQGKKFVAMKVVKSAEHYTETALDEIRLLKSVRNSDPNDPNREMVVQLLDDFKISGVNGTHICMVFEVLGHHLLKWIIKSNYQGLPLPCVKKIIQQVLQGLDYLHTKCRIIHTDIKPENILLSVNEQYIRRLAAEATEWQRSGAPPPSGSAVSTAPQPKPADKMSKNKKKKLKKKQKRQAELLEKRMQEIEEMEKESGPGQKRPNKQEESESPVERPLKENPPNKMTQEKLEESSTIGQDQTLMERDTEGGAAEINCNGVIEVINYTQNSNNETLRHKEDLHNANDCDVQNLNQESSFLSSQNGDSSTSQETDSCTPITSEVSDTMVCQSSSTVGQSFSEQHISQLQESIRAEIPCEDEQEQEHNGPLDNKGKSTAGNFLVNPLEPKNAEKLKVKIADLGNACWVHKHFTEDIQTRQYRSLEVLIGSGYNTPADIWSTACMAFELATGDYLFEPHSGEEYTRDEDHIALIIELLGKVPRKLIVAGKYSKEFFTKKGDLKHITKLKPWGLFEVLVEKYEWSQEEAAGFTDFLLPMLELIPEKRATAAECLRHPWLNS
UniProt P78362, whole entry: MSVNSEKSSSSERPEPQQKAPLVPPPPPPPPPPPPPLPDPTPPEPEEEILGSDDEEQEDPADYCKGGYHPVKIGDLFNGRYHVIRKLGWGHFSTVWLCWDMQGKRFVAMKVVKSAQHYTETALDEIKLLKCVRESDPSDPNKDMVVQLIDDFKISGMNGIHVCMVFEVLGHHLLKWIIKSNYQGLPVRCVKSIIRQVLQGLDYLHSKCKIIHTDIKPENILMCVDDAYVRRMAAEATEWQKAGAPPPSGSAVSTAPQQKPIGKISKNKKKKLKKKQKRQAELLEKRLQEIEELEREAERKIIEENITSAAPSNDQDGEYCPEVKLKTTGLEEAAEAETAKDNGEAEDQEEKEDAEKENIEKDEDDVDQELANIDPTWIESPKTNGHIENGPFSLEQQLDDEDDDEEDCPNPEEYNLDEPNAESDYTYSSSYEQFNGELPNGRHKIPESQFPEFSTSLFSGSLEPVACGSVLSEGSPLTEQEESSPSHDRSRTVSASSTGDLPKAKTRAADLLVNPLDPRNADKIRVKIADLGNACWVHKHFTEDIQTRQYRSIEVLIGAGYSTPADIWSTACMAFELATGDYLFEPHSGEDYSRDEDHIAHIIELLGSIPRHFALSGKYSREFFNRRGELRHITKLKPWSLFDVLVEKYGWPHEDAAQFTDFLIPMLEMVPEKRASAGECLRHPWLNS
UniProt P49674: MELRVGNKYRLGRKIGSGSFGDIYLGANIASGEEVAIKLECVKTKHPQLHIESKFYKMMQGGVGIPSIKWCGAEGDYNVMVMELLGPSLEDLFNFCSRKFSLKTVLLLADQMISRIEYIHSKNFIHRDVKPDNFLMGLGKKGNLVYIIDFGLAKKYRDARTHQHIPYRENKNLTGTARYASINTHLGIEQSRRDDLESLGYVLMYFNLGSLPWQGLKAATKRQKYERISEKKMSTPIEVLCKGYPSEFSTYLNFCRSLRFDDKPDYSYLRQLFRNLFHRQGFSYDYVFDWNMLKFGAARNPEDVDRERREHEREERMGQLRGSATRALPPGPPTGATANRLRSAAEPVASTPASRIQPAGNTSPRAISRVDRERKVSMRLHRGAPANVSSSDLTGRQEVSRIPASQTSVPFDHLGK
UniProt P48730: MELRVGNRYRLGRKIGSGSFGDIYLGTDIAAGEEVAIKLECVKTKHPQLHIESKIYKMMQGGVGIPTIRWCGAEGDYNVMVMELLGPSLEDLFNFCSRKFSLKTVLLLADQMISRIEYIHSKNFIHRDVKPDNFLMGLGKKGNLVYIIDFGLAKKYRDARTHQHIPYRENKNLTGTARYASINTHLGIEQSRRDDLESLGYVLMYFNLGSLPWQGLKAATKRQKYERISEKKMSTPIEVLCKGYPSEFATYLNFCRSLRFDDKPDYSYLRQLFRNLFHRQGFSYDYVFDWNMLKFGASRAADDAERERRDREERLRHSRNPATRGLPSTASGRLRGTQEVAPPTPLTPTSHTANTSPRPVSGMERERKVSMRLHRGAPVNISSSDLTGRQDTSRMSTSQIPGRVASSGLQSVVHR
UniProt Q96LA8, whole entry: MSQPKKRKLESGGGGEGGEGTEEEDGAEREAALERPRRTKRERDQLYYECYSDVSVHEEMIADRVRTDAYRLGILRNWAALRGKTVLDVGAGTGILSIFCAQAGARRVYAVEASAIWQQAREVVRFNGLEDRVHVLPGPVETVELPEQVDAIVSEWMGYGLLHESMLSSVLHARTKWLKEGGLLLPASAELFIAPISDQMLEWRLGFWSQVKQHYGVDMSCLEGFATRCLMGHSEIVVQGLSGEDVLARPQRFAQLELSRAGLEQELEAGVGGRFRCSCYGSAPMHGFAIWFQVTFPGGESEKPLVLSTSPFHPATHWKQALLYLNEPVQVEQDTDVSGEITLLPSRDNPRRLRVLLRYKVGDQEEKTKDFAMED

Work on `CN(c1ncccc1CNc1ccnc(-c2nc3c(F)c(Cl)ccc3[nH]2)n1)S(C)(=O)=O` yielded an IC50 (SRSF protein kinase 1) of 2.7 nM and an IC50 (SRSF protein kinase 2) of 81 nM.

For `CN1Cc2nccc(-c3cn(C)nc3-c3ccc(F)cc3)c2C1=O`, the IC50 [1] was 36 nM and the IC50 [2] was 8 nM.

For `Cc1cc(C)cc([C@H]2c3cc(C)ccc3NC(=O)CN2C(=O)c2ccc(Br)s2)c1`, the IC50 [3] was greater than 50000 nM.
